Reference: patent US11104703B2, “Binding compound and uses thereof” (priority 2016, dated 2021)

By UniProt entry, the sequences of proteins in these tests, tags left out. Residues count along the entry.
UniProt P08246, 30-267 limits assumed: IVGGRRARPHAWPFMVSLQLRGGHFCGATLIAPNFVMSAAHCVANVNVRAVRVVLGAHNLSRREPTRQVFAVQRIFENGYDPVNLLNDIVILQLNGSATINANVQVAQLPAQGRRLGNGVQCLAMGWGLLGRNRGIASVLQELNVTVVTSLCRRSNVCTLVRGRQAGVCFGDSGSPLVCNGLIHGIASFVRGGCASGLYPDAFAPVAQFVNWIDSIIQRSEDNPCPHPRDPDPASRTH

Target: Neutrophil Elastase (Homo sapiens, UniProt P08246)

CC(C)N(CC(=O)NCC(=O)NCC(=O)NCCCOCCOCCOCCCNC(=O)CCCC[C@@H]1SC[C@@H]2NC(=O)N[C@@H]21)C(=O)ON1C(=O)CCC1=O
Ki: 6 µM
